Each structure is given as a SMILES string. This is a selection; strong and weak results do not stand in their true shares. Calls of active or inactive are those of the source.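 Rule for the calls: active = percent inhibition above its own plate's cutoff, namely the mean of that plate's compound wells plus 3 SD; inactive = the rest.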

By UniProt entry, the sequences of proteins in these tests, tags left out. Where a name states a change or a piece, a line headed by the entry shows the natural chain unless it says otherwise.
UniProt P11229: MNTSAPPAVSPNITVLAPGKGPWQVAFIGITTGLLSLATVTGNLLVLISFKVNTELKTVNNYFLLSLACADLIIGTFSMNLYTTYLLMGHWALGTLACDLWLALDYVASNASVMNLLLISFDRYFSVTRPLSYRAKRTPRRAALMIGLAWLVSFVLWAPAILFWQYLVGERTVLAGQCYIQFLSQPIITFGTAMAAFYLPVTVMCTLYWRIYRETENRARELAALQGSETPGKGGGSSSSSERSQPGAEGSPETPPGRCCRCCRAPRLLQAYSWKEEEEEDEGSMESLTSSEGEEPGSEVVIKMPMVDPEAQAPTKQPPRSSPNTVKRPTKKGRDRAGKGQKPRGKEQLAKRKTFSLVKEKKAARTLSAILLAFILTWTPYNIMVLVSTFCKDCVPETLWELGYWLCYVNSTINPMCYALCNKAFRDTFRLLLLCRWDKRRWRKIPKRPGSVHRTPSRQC

For this test, the target named is Muscarinic acetylcholine receptor M1 (Homo sapiens) (UniProt P11229). Nature of the test: human M1 muscarinic receptor antagonists, primary screen, CHO-K1 cells, Fluo-8 calcium fluorescence, 1536-well (AID 588852).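 Note: peak over basal fluorescence ratio during 140 s after agonist addition; 0% = ACh EC80 plus DMSO and 100% = DMSO alone without agonist.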 As to conditions: CHO-K1 hM1, Fluo-8 calcium fluorescence, ACh EC80 antagonist; at 3 µM; stronger effect = higher value.
Regarding `CC(=O)Nc1ccc([As](=O)(O)O)cc1`, the inhibition was inactive: -8.53%. For `O=C(O)c1ccccc1[As](=O)(O)O` the value was inactive: -15.7%. Turning to `O=[N+]([O-])C1C(O)C(O)C([N+](=O)[O-])C(O)C1O` (stereo not drawn), the inhibition is inactive: -5.78%. On to `O=C(NC(Sc1ccncn1)C(Cl)(Cl)Cl)c1ccccc1` (stereo not drawn), for which the inhibition was inactive: -6.01%. As for `Oc1ccccc1CNc1ccccn1`, the inhibition is inactive: -3.51%. For `Nc1cc(N)c2nonc2c1[N+](=O)[O-]`, the inhibition is inactive: -0.47%. On to `CC(C)CC(=O)NC(Sc1ccc(Cl)cc1)C(Cl)(Cl)Cl` (stereo not drawn), for which the inhibition is inactive: -12.4%. For `CN1CCCC(OC(=O)C(c2ccccc2)c2ccccc2)C1` (stereo not drawn) the value was active: 97.7%; for `Clc1ccc(Cl)c(NC2=NCC(CBr)S2)c1` (stereo not drawn), inactive: -2.99%; for `Cc1ccc(OP(=O)(Nc2nccs2)Oc2ccc(C)cc2)cc1`, inactive: -1.53%. The same measure for `COc1ccccc1OP(=O)(Nc1ccc(C)cn1)Oc1ccccc1OC`: inactive: 2.62%; for `CC(C)[C@H]1C(=O)O[C@@H]2CCN3CC=C(COC(=O)[C@](C)(O)[C@]1(C)O)[C@H]23`: inactive: -1.05%.

Turning to `Cc1ccc(N/C(=N/P(=O)(N2CCOCC2)N2CCOCC2)N2CCOCC2)cc1`, the inhibition is inactive: 16.2%. Regarding `CN(C(=O)Cc1ccc(Cl)c(Cl)c1)[C@H]1CCCC[C@H]1N1CCCC1`, the inhibition is inactive: -10.7%. For `NC(=O)c1cc([N+](=O)[O-])cc([N+](=O)[O-])c1N` the value was inactive: -1%. Regarding `CC1CCN(C(=O)Oc2c(Cl)cc(Cl)c3cccnc23)CC1`, the inhibition is inactive: -0.32%. As for `c1cc(-c2nn[nH]n2)ccc1-c1nn[nH]n1`, the inhibition was inactive: -10.7%. In the case of `CN(C)C(=O)OCCc1n(C)cc[n+]1C`, the inhibition is inactive: -9.24%. For the compound `CC(C)c1nc(Nc2ccccc2)n(P(=O)(N(C)C)N(C)C)n1`, the inhibition is inactive: 3.86%. The same measure for `CC(C)=N/N=C(\N)N[N+](=O)[O-]`: inactive: -5.7%. Turning to `CCN(/C(=N/P(=O)(N1CCOCC1)N1CCOCC1)N1CCOCC1)c1ccc(OC)cc1`, the inhibition was inactive: 1.49%. On to `C[N+]1=C2C=CC=CC=C2SC12C([N+](=O)[O-])=CC([N+](=O)[O-])=C[C-]2[N+](=O)[O-]` (stereo not drawn), for which the inhibition is inactive: 20.7%.

As to `Nc1ccc([As](=O)(O)c2ccc(N)cc2)cc1`, the inhibition is inactive: -9.86%.

Regarding `CCc1nc2c(n1)c1c(non1O)c1c2no[n+]1[O-]`, the inhibition was inactive: -0.02%. In the case of `O=[N+]([O-])c1cc([N+](=O)[O-])c(CCNc2ccccc2)c([N+](=O)[O-])c1`, the inhibition was inactive: 1.96%.

For the compound `Cc1ccc(NP(=O)(Oc2ccccc2)Oc2ccccc2)nc1`, the inhibition is inactive: 21.4%.

With `O=[N+]([O-])c1cccc2n[nH]nc12`, the inhibition was inactive: -4.49%.

On to `CC(=O)N1C2C3N(C(C)=O)C1C1N(C(C)=O)C(C(N1C(C)=O)N3C(C)=O)N2C(C)=O`, for which the inhibition was inactive: -4.99%.

Turning to `COc1ccc(C2=NCC(CBr)S2)cc1` (stereo not drawn), the inhibition is inactive: -5.81%. Consider `O=C(O)CNc1ccc([As](=O)(O)O)cc1`, for which the inhibition is inactive: 13.7%.

Take `C/C=C1/C[C@@H](C)[C@](O)(CO)C(=O)OCC2=CCN3CC[C@@H](OC1=O)[C@@H]23`: the inhibition is inactive: -23.2%. The same measure for `COC(=O)C1(C)COP(=O)(Nc2ccccc2)OC1` (stereo not drawn): inactive: -10.5%.

Regarding `O=[N+]([O-])c1cccc(NC2=NCC(CBr)S2)c1` (stereo not drawn), the inhibition is inactive: -20.8%. `O=[N+]([O-])c1ncn(CCn2ncnc2[N+](=O)[O-])n1`: the inhibition is inactive: -3.23%.

With `CC(C)(C)C(=O)NC(Sc1ccncn1)C(Cl)(Cl)Cl` (stereo not drawn), the inhibition was inactive: -12.4%.

On to `O=C(Nc1cc([As](=O)(O)O)ccc1O)c1ccccc1`, for which the inhibition was inactive: -13%. For the compound `O=P1(N(CCCl)CCCl)OCCCS1` (stereo not drawn), the inhibition was inactive: -22%. The same measure for `C(Cc1nn[nH]n1)Cc1nn[nH]n1`: inactive: -2.37%; for `Nc1ccc([As](=O)(O)c2ccc([N+](=O)[O-])cc2)cc1`: inactive: -11.3%. With `COc1ccc(CC2NCC(O)C2OC(C)=O)cc1` (stereo not drawn), the inhibition was inactive: -25.1%.

For the compound `O=[As](O)(c1ccccc1)c1ccc(O)cc1`, the inhibition was inactive: 2.6%. For `O=[N+]([O-])c1ccc(O)c(/C=N/Nc2ccc([N+](=O)[O-])cc2[N+](=O)[O-])c1`, the inhibition was inactive: -16.4%. For `O=[N+]([O-])c1ncn(CCn2cnc([N+](=O)[O-])n2)n1` the value was inactive: -6.47%; for `CC(=O)NC(SC(=S)N(C)C)C(Cl)(Cl)Cl` (stereo not drawn), inactive: -8.29%.

With `C[C@H]1OP(=O)(Oc2ccccc2)[C@H](O)[C@H](O)[C@H]1N=[N+]=[N-]` (stereo partly drawn), the inhibition was inactive: -8.25%. On to `O=P(Nc1ccccn1)(c1ccc(Br)cc1)c1ccc(Br)cc1`, for which the inhibition was inactive: -5.61%. For `COc1ccc(N)c([N+](=O)[O-])c1[N+](=O)[O-]`, the inhibition is inactive: -2.77%. Take `Nc1ccc(CCCCOc2ccccc2)cc1`: the inhibition was inactive: -10.1%. As for `COc1ccc(C[C@H](C)NC[C@@H](O)c2ccc(O)c(NC=O)c2)cc1`, the inhibition was inactive: -12%. With `c1nnnn1CCn1cnnn1`, the inhibition is inactive: -20.6%. For the compound `CC(C)C(=O)NC(Sc1ccccc1)C(Cl)(Cl)Cl` (stereo not drawn), the inhibition was inactive: -5.73%.

Regarding `O=P(Nc1nccs1)(c1ccccc1)c1ccccc1`, the inhibition is inactive: -6.96%. For `CC(=O)Nc1ccc(Oc2c([N+](=O)[O-])cc([N+](=O)[O-])cc2[N+](=O)[O-])cc1` the value was inactive: -4.1%; for `CC(=O)Nc1ccc([As](=O)(O)O)c(O)c1`, inactive: -3.93%; for `C[C@H]1OP(=O)(Oc2ccccc2)C[C@@H]2O[C@@H]21` (stereo partly drawn), inactive: -18.1%. With `C[C@@H]1C=CCP(=O)(Oc2ccccc2)O1` (stereo partly drawn), the inhibition was inactive: -7.32%. Consider `Cc1ccccc1CN(C)C(=O)COC(=O)C(O)(c1ccccc1)c1ccccc1`, for which the inhibition is inactive: -3.28%. On to `CCN(CC)CCOC(=O)C(O)(c1ccccc1)c1ccccc1`, for which the inhibition was active: 98.1%. Turning to `COC(=O)C1(C)COP(=O)(NCc2ccccc2)OC1` (stereo not drawn), the inhibition is inactive: -4.44%. The same measure for `CC1C(=O)OC2CCN3CC=C(COC(=O)C(C)(O)C1(C)O)C23` (stereo not drawn): inactive: -5.1%; for `CC(=O)c1ccc(N2CC2c2ccncc2)cc1` (stereo not drawn): inactive: -10.1%; for `N#C/C(=C\c1ccc(N(CCBr)CCBr)cc1)C(N)=O`: inactive: -7.3%. Consider `CC(C)(C)C(=O)NC(Sc1ccccc1)C(Cl)(Cl)Cl` (stereo not drawn), for which the inhibition was inactive: -3.66%.

(Values after PubChem BioAssay AID588852 (The Scripps Research Institute Molecular Screening Center, 2011).)
